Measured values reported in PubChem BioAssay AID1456 (Vanderbilt High Throughput Screening Facility, 2008).
The entries are a selection whose mix differs from that of the whole data set. Some results for these compounds are left out of this collection, so the calls shown say nothing about other tests. Active and inactive are the calls of the source.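 The calls were made as follows: active = thallium flux slope and its plate-corrected score both differing from the plate sample mean at a set confidence after two filtering rounds, in either direction; inactive = the rest.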

Chains of the proteins cited; added tags and fusions are not shown.
UniProt Q9H2X9, whole entry: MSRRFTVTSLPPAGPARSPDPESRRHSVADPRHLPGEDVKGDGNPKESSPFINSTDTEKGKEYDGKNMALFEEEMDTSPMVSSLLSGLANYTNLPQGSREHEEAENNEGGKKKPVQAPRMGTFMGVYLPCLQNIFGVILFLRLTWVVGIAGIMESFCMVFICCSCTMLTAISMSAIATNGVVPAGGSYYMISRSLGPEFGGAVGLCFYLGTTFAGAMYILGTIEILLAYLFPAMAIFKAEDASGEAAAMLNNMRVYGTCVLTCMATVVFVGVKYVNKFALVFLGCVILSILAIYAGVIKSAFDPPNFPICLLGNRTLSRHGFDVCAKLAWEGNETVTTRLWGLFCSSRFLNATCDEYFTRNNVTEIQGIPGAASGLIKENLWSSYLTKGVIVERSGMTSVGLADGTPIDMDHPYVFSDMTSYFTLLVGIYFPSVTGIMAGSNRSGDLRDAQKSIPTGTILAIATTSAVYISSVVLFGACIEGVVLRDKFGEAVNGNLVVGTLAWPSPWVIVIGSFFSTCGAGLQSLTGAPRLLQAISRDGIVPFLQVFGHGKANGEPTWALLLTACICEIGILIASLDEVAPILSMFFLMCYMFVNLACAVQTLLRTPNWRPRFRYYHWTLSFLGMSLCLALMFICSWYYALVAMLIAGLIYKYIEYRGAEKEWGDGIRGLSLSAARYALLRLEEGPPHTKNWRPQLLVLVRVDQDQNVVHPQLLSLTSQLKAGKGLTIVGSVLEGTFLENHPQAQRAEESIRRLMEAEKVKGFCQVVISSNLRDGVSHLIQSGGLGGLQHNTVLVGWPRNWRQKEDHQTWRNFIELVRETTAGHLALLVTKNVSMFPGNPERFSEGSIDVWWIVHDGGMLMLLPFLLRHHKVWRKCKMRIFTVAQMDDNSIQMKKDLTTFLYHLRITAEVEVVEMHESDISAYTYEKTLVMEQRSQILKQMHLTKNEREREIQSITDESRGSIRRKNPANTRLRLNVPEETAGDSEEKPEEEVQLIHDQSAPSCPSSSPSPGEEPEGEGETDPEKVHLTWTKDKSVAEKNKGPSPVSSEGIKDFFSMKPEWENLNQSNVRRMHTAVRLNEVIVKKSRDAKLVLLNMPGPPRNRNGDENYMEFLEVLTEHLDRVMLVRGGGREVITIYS

Biological target: Solute carrier family 12 member 5 (Homo sapiens) (UniProt Q9H2X9)
Experiment: KCC2 cotransporter modulators, thallium flux, primary screen, cell-based, HEK293 KCC2, FluoZin-2 fluorescence, MLSMR (AID 1456)
Details: KCC2 cells, thallium flux FluoZin-2 fluorescence; at 10 µM; stronger effect = higher value

Q: `C=CCN1CCN(CCOC(=O)C(O)(c2ccccc2)c2ccccc2)CC1` was tested. Which B-score did it give?
A: inactive: 1.27

Q: For `CN(C)C1CCCC1OC(=O)C(O)(c1ccccc1)c1ccccc1` (configuration not stated), which B-score is on record?
A: inactive: 0.69

Q: `Cc1ccccc1C(=O)NCC1(N2CCCCC2)CCCCC1` was tested. Which B-score did it give?
A: inactive: 1.01

Q: How did the B-score turn out when `CCN(CC)CC(C)C(C)OC(=O)C(O)(c1ccccc1)c1ccccc1` (configuration not stated) was run?
A: inactive: -0.00666

Q: With `COc1ccc(Br)c(C(=O)NCC2(N3CCCCC3)CCCCC2)c1` as the molecule, how does the B-score read?
A: inactive: -1.12

Q: For `O=C(OC1CN2CCC1CC2)C(CO)(c1ccccc1)c1ccccc1` (configuration not stated), which B-score is on record?
A: inactive: 0.015

Q: Which B-score does the source give for `COc1cccc(C(=O)NCC2(N3CCCCC3)CCCCC2)c1` here?
A: inactive: 0.0592
